Chains of the proteins cited; added tags and fusions are not shown.
UniProt O43614, whole entry: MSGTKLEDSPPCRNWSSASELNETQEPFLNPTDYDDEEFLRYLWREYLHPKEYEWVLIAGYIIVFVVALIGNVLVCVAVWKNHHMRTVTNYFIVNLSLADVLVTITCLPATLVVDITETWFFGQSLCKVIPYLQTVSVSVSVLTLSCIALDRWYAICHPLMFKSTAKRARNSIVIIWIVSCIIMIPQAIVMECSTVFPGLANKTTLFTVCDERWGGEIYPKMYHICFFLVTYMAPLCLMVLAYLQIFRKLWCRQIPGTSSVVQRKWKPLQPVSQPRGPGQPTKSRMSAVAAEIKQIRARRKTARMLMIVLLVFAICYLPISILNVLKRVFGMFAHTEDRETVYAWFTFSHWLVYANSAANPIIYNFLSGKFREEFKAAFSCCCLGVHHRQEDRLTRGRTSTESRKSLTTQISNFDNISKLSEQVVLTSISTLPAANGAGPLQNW

According to patent publication US8969352B2, “Substituted 2-azabicycles and their use as orexin receptor modulators” (Janssen Pharmaceutica NV, priority 2013, dated 2015):

Target: human orexin 2 receptor (Homo sapiens (Human), UniProt O43614)
Test: Human orexin 2 receptor radioligand binding
Conditions: HEK293 stably expressing human orexin 2 receptor; [3H]-EMPA competitive binding, apparent Ki; read-out: hOX2 Ki
Protocol: Human Orexin 2 Receptor Radioligand Binding Studies
(§1) After centrifugation (2K×G, 5 min at 4° C.), the supernatant was aspirated and the pellets frozen and stored at −80° C. […] Each cell pellet from a 15 cm plate was resuspended in 10 mL, stored on ice, and homogenized for 45 sec just prior to addition to the reactions. Competition binding experiments in 96 well polypropylene plates were performed using [^3H]-EMPA (Moraveck Corporation, specific activity=29.6 Ci/mmol), diluted to a 5 nM concentration in PBS (2 nM final concentration). […] The final concentration of DMSO in the reactions is equal to or less than 0.1%. Total and nonspecific binding was determined in the absence and presence of 10 μM almorexant. The total volume of each reaction is 200 μL (20 μL of diluted compounds, 80 μL of [^3H]-EMPA diluted in PBS and 100 μL of the cell suspension). […] The plates were washed 3 times by aspirating 30 ml PBS through the plates. Plates were dried in 55° C. oven for 60 min, scintillation fluid was added, and the radioactivity was counted on a Topcount (Packard).

| Structure (SMILES) | Ki |
| --- | --- |
| O=C(c1cccc(F)c1-n1nccn1)N1C[C@H]2C[C@@H](Oc3ccc(C(F)(F)F)cn3)[C@@H]1C2 [Example 35, (3-fluoro-2-(2H-1,2,3-triazol-2-yl)phenyl)((1S,4R,6R)-6-((5-(trifluoromethyl)pyridin-2-yl)oxy)-2-azabicyclo[2.2.1]heptan-2-yl)methanone] | 542 nM |
| O=C(c1cc(F)ccc1-n1nccn1)N1CC2CC(Oc3ccc(C(F)(F)F)cn3)C1C2 (racemic) [Example 14, (R/S)-(5-fluoro-2-(2H-1,2,3-triazol-2-yl)phenyl)(6-((5-(trifluoromethyl)pyridin-2-yl)oxy)-2-azabicyclo[2.2.1]heptan-2-yl)methanone] | 855 nM |
| O=C(c1ccccc1-n1nccn1)N1C[C@H]2C[C@@H](Nc3ccc(C(F)(F)F)cn3)[C@@H]1C2 [Example 53, (2-(2H-1,2,3-triazol-2-yl)phenyl)((1S,4S,6R)-6-((5-(trifluoromethyl)pyridin-2-yl)amino)-2-azabicyclo[2.2.1]heptan-2-yl)methanone] | 165 nM |
| O=C(c1ccccc1-n1nccn1)N1CC2CC(Oc3cnc(C(F)(F)F)cn3)C1C2 (racemic) [Example 1, (R/S)-(2-(2H-1,2,3-triazol-2-yl)phenyl)(6-((5-(trifluoromethyl)pyrazin-2-yl)oxy)-2-azabicyclo[2.2.1]heptan-2-yl)methanone] | 4700 nM |
| O=C(c1cccc(F)c1-n1nccn1)N1CC2CC(Oc3ccc(C(F)(F)F)cn3)C1C2 (racemic) [Example 16, (R/S)-(3-fluoro-2-(2H-1,2,3-triazol-2-yl)phenyl)(6-((5-(trifluoromethyl)pyridin-2-yl)oxy)-2-azabicyclo[2.2.1]heptan-2-yl)methanone] | 1000 nM |
| Cc1ccc(-n2nccn2)c(C(=O)N2CC3CC(Oc4ccc(C(F)(F)F)cn4)C2C3)n1 (single isomer, unassigned) [Example 23] | > 10000 nM |
| Cc1cccc(C(=O)N2C[C@H]3C[C@@H](Oc4ccc(C(F)(F)F)cn4)[C@@H]2C3)c1-c1ncco1 [Example 32, (3-methyl-2-(oxazol-2-yl)phenyl)((1S,4R,6R)-6-((5-(trifluoromethyl)pyridin-2-yl)oxy)-2-azabicyclo[2.2.1]heptan-2-yl)methanone] | 143 nM |
| O=C(c1cc(F)ccc1-n1nccn1)N1C[C@H]2C[C@@H](Oc3ccc(C(F)(F)F)cn3)[C@@H]1C2 [Example 43, (5-fluoro-2-(2H-1,2,3-triazol-2-yl)phenyl)((1S,4R,6R)-6-((5-(trifluoromethyl)pyridin-2-yl)oxy)-2-azabicyclo[2.2.1]heptan-2-yl)methanone] | 557 nM |
| O=C(c1c(F)cccc1-c1ncccn1)N1C[C@H]2C[C@@H](Oc3ccc(Br)cn3)[C@@H]1C2 [Example 47, ((1S,4R,6R)-6-((5-bromopyridin-2-yl)oxy)-2-azabicyclo[2.2.1]heptan-2-yl)(2-fluoro-6-(pyrimidin-2-yl)phenyl)methanone] | 503 nM |

Target: human orexin 1 receptor (Homo sapiens, UniProt O43613)
Test: Human orexin 1 receptor radioligand binding
Conditions: CHO cells stably expressing human orexin 1 receptor; competitive radioligand binding, apparent Ki; read-out: hOX1 Ki
Protocol: (§2) Rat and Human Orexin 1 Receptor Radioligand Binding Studies
as §1, with “sec” for “sec just”, “reactions.” for “reactions. Competition binding experiments in 96 well polypropylene plates were performed using [^3H]-EMPA (Moraveck Corporation, specific activity=29.6 Ci/mmol), diluted to a 5 nM concentration in PBS (2 nM final concentration).”, “[^3H]-(1-(5-(2-fluoro-phenyl)-2-methyl-thiazol-4-yl)-1-((S)-2-(5-phenyl-(1,3,4)oxadiazol-2-ylmethyl)-pyrrolidin-1-yl)-methanone)” for “[^3H]-EMPA”

| Structure (SMILES) | Ki |
| --- | --- |
| O=C(c1ccc(F)cc1-c1ncccn1)N1CC2CC(Oc3ccc(C(F)(F)F)cn3)C1C2 (racemic) [Example 20, (R/S)-(4-fluoro-2-(pyrimidin-2-yl)phenyl)(-6-((5-(trifluoromethyl)pyridin-2-yl)oxy)-2-azabicyclo[2.2.1]heptan-2-yl)methanone] | 15 nM |
| CCOc1ncc2ccccc2c1C(=O)N1CC2CC(Oc3ccc(C(F)(F)F)cn3)C1C2 (racemic) [Example 8, (R/S)-(3-ethoxyisoquinolin-4-yl)(6-((5-(trifluoromethyl)pyridin-2-yl)oxy)-2-azabicyclo[2.2.1]heptan-2-yl)methanone] | 15 nM |
| O=C(c1ccc(F)cc1-c1ncccn1)N1C[C@H]2C[C@@H](Oc3ccc(C(F)(F)F)cn3)[C@@H]1C2 [Example 26, (4-fluoro-2-(pyrimidin-2-yl)phenyl)((1S,4R,6R)-6-((5-(trifluoromethyl)pyridin-2-yl)oxy)-2-azabicyclo[2.2.1]heptan-2-yl)methanone] | 15 nM |

Target: rat orexin 1 receptor (Rattus norvegicus, UniProt P56718)
Test: Rat orexin 1 receptor radioligand binding
Conditions: HEK293 cells stably expressing rat orexin 1 receptor; competitive radioligand binding, apparent Ki; read-out: rOX1 Ki
Protocol: as §2
as §1, with “sec” for “sec just”, “reactions.” for “reactions. Competition binding experiments in 96 well polypropylene plates were performed using [^3H]-EMPA (Moraveck Corporation, specific activity=29.6 Ci/mmol), diluted to a 5 nM concentration in PBS (2 nM final concentration).”, “[^3H]-(1-(5-(2-fluoro-phenyl)-2-methyl-thiazol-4-yl)-1-((S)-2-(5-phenyl-(1,3,4)oxadiazol-2-ylmethyl)-pyrrolidin-1-yl)-methanone)” for “[^3H]-EMPA”

| Structure (SMILES) | Ki |
| --- | --- |
| CCOc1ncc2ccccc2c1C(=O)N1CC2CC(Oc3ccc(C(F)(F)F)cn3)C1C2 (racemic) [Example 8, (R/S)-(3-ethoxyisoquinolin-4-yl)(6-((5-(trifluoromethyl)pyridin-2-yl)oxy)-2-azabicyclo[2.2.1]heptan-2-yl)methanone] | 16 nM |
